Measurements reported in patent USRE42014E1, “Pharmaceutical compositions” (Novartis AG, priority 1996, dated 2010).

Details: Lipofundin 10% MCT

C/C=C/C[C@@H](C)C(=O)[C@H]1C(=O)N[C@@H](C(C)C)C(=O)N(C)CC(=O)N(C)[C@@H](CC(C)C)C(=O)N[C@@H](C(C)C)C(=O)N(C)[C@@H](CC(C)C)C(=O)N[C@@H](C)C(=O)N[C@H](C)C(=O)N(C)[C@@H](CC(C)C)C(=O)N(C)[C@@H](CC(C)C)C(=O)N(C)[C@@H](C(C)C)C(=O)N1C [PSC 833, [3′-desoxy-3′-oxo-MeBmt]^1-[Val]^2-Ciclosporin]
Loading of the fat phase with PSC 833: up to 20%
